{
  "source": "patent US7212853B1",
  "about": "(priority 1996, dated 2007)",
  "key": {"[1]": {"assay": "Transdermal electrotransport delivery of fentanyl in volunteers: effect of initial high current density boluses (Example 1)", "details": "for mean transdermal fentanyl flux: calculated from serum concentrations"}, "[2]": {"assay": "Transdermal electrotransport delivery of fentanyl at constant DC current densities of 10, 20 and 40 μA/cm^2 (Example 2)", "details": "for average transdermal fentanyl rate: constant DC, 24 h, 8 volunteers"}, "[3]": {"assay": "Transdermal electrotransport delivery of fentanyl with pulsed current at 1, 10 and 625 Hz (Example 4, Table 1)", "details": "for Rate of Fentanyl Delivery, After Bolus Treatment: after DC bolus 30 minutes at 0.1 mA/cm^2"}, "[4]": {"details": "1 Hz, pulse width 310 msec, 31% duty cycle"}, "[5]": {"details": "10 Hz, pulse width 31 msec, 31% duty cycle"}, "[6]": {"details": "625 Hz, pulse width 0.5 msec, 31% duty cycle"}},
  "note": "Some compounds may have been tested in ways that are not shown here. Marks after values point to notes of the source that are not given here.",
  "data": [
    {"molecule": "CCC(=O)N(c1ccccc1)C1CCN(CCc2ccccc2)CC1", "values": [
      {"measurement": "enhancement of electrotransport delivery efficiency (factor)", "setting": "[1]; initial high current density boluses vs baseline current only", "value": "two"},
      {"measurement": "mean transdermal fentanyl flux", "setting": "[1]; six volunteers, four 260 μA/cm^2, 2.5 minute boluses in first hour, then 20 μA/cm^2 through 24 hours", "value": 113, "unit": "µg/h"},
      {"measurement": "mean transdermal fentanyl flux", "setting": "[1]; twelve volunteers, only 20 μA/cm^2 baseline current over 24 hours", "value": 57, "unit": "µg/h"},
      {"measurement": "average transdermal fentanyl rate", "setting": "[2]; 10 μA/cm^2 (50 μA)", "value": 19, "unit": "µg/h"},
      {"measurement": "average transdermal fentanyl rate", "setting": "[2]; 20 μA/cm^2 (100 μA)", "value": 73, "unit": "µg/h"},
      {"measurement": "average transdermal fentanyl rate", "setting": "[2]; 40 μA/cm^2 (200 μA)", "value": 173, "unit": "µg/h"},
      {"measurement": "enhancement of efficiency of fentanyl delivery", "setting": "[2]; change in current density from 10 to 40 μA/cm^2", "value": "about 2.5 fold"},
      {"measurement": "increase in drug rate", "setting": "[2]; current increased four-fold from 50 μA to 200 μA", "value": "ten"},
      {"measurement": "Rate of Fentanyl Delivery, Without Bolus Treatment", "setting": "[3]; [4]", "value": "48** μg/hr."},
      {"measurement": "Rate of Fentanyl Delivery, After Bolus Treatment", "setting": "[3]; [4]", "value": "48** μg/hr."},
      {"measurement": "Rate of Fentanyl Delivery, Without Bolus Treatment", "setting": "[3]; [5]", "value": "52** μg/hr."},
      {"measurement": "Rate of Fentanyl Delivery, After Bolus Treatment", "setting": "[3]; [5]", "value": "52** μg/hr."},
      {"measurement": "difference in fentanyl flux between 1 and 10 Hz", "setting": "[3]; 200 μA pulses (100 μA/cm^2), 31% duty cycle", "value": "No statistically significant difference"},
      {"measurement": "Rate of Fentanyl Delivery, Without Bolus Treatment", "setting": "[3]; [6]", "value": 7, "unit": "µg/h"},
      {"measurement": "Rate of Fentanyl Delivery, After Bolus Treatment", "setting": "[3]; [6]", "value": 34, "unit": "µg/h"},
      {"measurement": "minimum pulse width to cause transformation to the higher efficiency state", "setting": "[3]; fentanyl, stated as believed", "value": "about 10 msec"},
      {"measurement": "fentanyl flux (in words, FIG. 7)", "setting": "[3]; pulsing frequencies 1 and 10 Hz, 200 μA pulses (100 μA/cm^2), 31% duty cycle", "value": "increased fentanyl flux"},
      {"measurement": "fentanyl flux (in words, FIG. 7)", "setting": "[3]; square-wave 625 Hz, 200 μA pulses (100 μA/cm^2), 31% duty cycle", "value": "minimal fentanyl flux"}
    ]}
  ]
}
